# In patent publication US7186701B2, “Dehydrating agent and method for dehydrating moist article using the agent and dehydrated article obtained by the method” (Kabushiki Kaisha Hayashibara Seibutsu Kagaku Kenkyujo, priority 2001, dated 2007):
# Legend:
# [1] = Dehydrating action: moisture absorption on standing at controlled relative humidity; type: physicochemical; conditions: 25° C.
# Excerpt: Anhydrous crystalline cyclotetrasaccharide; crystalline cyclotetrasaccharide, monohydrate; anhydrous amorphous cyclotetrasaccharide; and crystalline cyclotetrasaccharide, penta- or hexa-hydrate were experimented in detail on their dehydrating actions, particularly, moisture absorption abilities against saccharides and changes on standing. As a control, anhydrous crystalline α,α-trehalose, anhydrous amorphous α,α-trehalose, and crystalline α,α-trehalose, dihydrate, were used as saccharides. The experiments were as follows: […]
# [2] = Dehydration and pulverization of plain yogurt by non-reducing saccharide; design: unit not given here
# Method: The anhydrous crystalline cyclotetrasaccharide; crystalline cyclotetrasaccharide, monohydrate; and anhydrous amorphous cyclotetrasaccharide were respectively prepared by the methods in Examples A-1, A-2, and A-3. As the crystalline α,α-trehalose, dihydrate, a commercially available “TREHA®” commercialized by Hayashibara Shoji Inc., Okayama, Japan, was used. The anhydrous crystalline α,α-trehalose and the anhydrous amorphous α,α-trehalose used in this experiment were prepared from a commercialized crystalline α,α-trehalose, dihydrate, using the methods disclosed in Examples for Reference 1 and 3 in Japanese Patent Kokai No. 170,221/94. To four parts by weight of a plain yogurt with a moisture content of about 77% was added either of the above saccharides in an amount of 11 to 16 parts by weight. […] The judgement was conducted in such a manner of sufficiently dehydrating the resulting mixtures to be solidified, subjected to a pulverizer for pulverization, and evaluated as “◯”, when the solids were easily pulverized; “Δ”, when the dehydration of the resulting mixtures was rather insufficient and the pulverization of solids was substantially difficult, though the resulting mixtures were solidified; and “x”, when the dehydration of the resulting mixtures was insufficient and could not be pulverized by a pulverizer.
substance,measurement,setting,value
"crystalline cyclotetrasaccharide, penta- or hexa-hydrate [Saccharide D]",moisture content (%) by the Karl Fisher method,"[1]; relative humidity 60%, 0 days after treatment",13.0%
same,moisture content (%) by the Karl Fisher method,"[1]; relative humidity 60%, 1 day after treatment",13.1%
same,moisture content (%) by the Karl Fisher method,"[1]; relative humidity 60%, 2 days after treatment",13.1%
same,moisture content (%) by the Karl Fisher method,"[1]; relative humidity 60%, 3 days after treatment",13.1%
same,moisture content (%) by the Karl Fisher method,"[1]; relative humidity 60%, 7 days after treatment",13.2%
same,moisture content (%) by the Karl Fisher method,"[1]; relative humidity 75%, 0 days after treatment",13.0%
same,moisture content (%) by the Karl Fisher method,"[1]; relative humidity 75%, 1 day after treatment",13.1%
same,moisture content (%) by the Karl Fisher method,"[1]; relative humidity 75%, 2 days after treatment",13.1%
same,moisture content (%) by the Karl Fisher method,"[1]; relative humidity 75%, 3 days after treatment",13.1%
same,moisture content (%) by the Karl Fisher method,"[1]; relative humidity 75%, 7 days after treatment",13.1%
same,Water content (before use),[2],13.0
